Patent publication US7291638B2, “3-amido-1,2-benzoisoxazole derivatives, process for preparation, and use thereof” (Dongwha Pharm. Ind. Co., Ltd., priority 2001, dated 2007)

What was measured:
[1] = Pharmacokinetics test in rats (oral; plasma concentration of the compound of formula 2 by HPLC); assay type: in vivo, rat; conditions: male Sprague-Dawley rats, vehicle DW (distilled water)
Procedure: Male white rats (Sprague-Dawley) having body weights of 230˜260 g were used, 3˜4 rats were tested for a drug. Rats were fasted for 18˜20 hours before the drug was administered. The weight of rat was measured on the day of the experiment, the drug was administered orally to the rats according to dosage. After administration, rats were lightly anesthetized with diethyl ether. At […], 0.17, 0.5, 1.0, 1.5, 3.0, 5.0, 8.0 hours, the blood was collected from orbit vein of the rats by canulation. The collected blood was centrifuged, and the plasma was isolated. To determine concentration of the drug in plasma, HPLC was carried out as follows. Acetonitrile containing internal standard substance and the isolated plasma was mixed in the same amount, followed by centrifuging at 12,000 rpm. The supernatent was applied to HPLC, bioavailability of the compounds prepared in EXAMPLES was measured by analyzing a plasma concentration of the compound of formula 2.
Pharmacokinetics parameters were measured by noncompartmental analysis, using WinNolin (ver. 1.0 Scientific Consulting Inc., USA). Time and maximum plasma concentration were registered by observed data, half life was calculated by linear regression analysis of terminal elimination phase.

[2] = tested on: osteoporotic rat induced by ovariectomy; test: Area ratio of trabecular bone in osteoporotic rats induced by ovariectomy; assay type: in vivo
Procedure: To investigate therapeutic value of the osteoporosis to ovariectomized rats, change in the number of osteoclast cell and area ratio of trabecular bone (volume %) were measured.
After 25 female white rats purchased from Chales River (Japan) were adjusted to a new environment, temperature of 20˜25° C. and relative humidity of 30˜35%. The 5 rats were positioned in a hutch, feed (Sam Yang corporation) and water were supplied to the rats. 20 rats had the operation for the removal of an ovary, 5 rats had the Sham operation for opening and suturing the abdominal cavity, used as Sham control group.
Also, to compare drug efficacies of EXAMPLE and the compound of formula 2, 5 rats removed of the ovary were used as experimental group. The compound of formula 2 was dissolved in injectable distilled water and administered to the rats orally in an amount of 100 mg per kg for 40 days from 10 weeks after ovariectomy or Sham-operation, using oral sonde. 5 ml/kg was administered to the rats. To compare with the compound of formula 2, the compounds of EXAMPLE 1 or 2 were prepared in the same concentration as the compound of formula 2, dissolved in PEG 100 solution (PEG 100:tween 80:water=2:3:15) and administered through intramuscular injection. 5 ml/kg was administered to the rats.
After administration terminated, the femur and tibia were removed from the animals, and fixed in 10% neutral formalin. The fixed tissue was decalcified in a solution (solution mixed 24.4% formic acid and 0.5 N sodium hydroxide) for 5 days, embedded in paraffin and 3˜4 μm sections were prepared. After that prepared section were dyed by hematoxylin-eosin.
Also, the area ratio of trabecular bone was calculated at the section of the femur and tibia respectively, through the equation.

[3] = osteoporotic rats induced by ovariectomy
[4] = ovariectomized rats, PEG 100 solution, intramuscular injection, 40 days

{5-[4-(4-diisopropylcarbamoyl-2-methoxy-phenoxy)-butoxy]-benzo[d]isoxazole-3-ylcarbamoyl}-methyl-ammonium methane sulfonic acid salt [Example 1]
T1/2 ([1]; 50 mg/kg): 2.29 h
T1/2 ([1]; 100 mg/kg): 5.58 h
area ratio of trabecular bone compared to the control group (in words) [2, 3]: excellently increased
therapeutic value (area ratio of the trabecular bone) compared with the compound of formula 2 (in words) [2, 3]: more distinguished therapeutic value than the compound of formula 2
area ratio of trabecular bone, Femur Left [2, 4]: 34.87 ± 3.41*.^## volume %
area ratio of trabecular bone, Tibia Left [2, 4]: 30.22 ± 6.31 volume %
area ratio of trabecular bone, Tibia Right [2, 4]: 34.58 ± 14.52 volume %
area ratio of trabecular bone, Femur Right ([2]; ovariectomized rats, PEG 100 solution, intramuscular injection, same concentration as formula 2 (100 mg per kg), 40 days): 34.59 ± 8.77*.^# volume %
